The results in this text go back to paper PMC12544700, “Identification of a Small Secretoneurin Derivative That Inhibits CaMKIIδ Activity” (Journal of Cellular and Molecular Medicine, 2025).

Amino acid sequences for entries named in this document (tags omitted).
UniProt Q13557, whole entry T287D: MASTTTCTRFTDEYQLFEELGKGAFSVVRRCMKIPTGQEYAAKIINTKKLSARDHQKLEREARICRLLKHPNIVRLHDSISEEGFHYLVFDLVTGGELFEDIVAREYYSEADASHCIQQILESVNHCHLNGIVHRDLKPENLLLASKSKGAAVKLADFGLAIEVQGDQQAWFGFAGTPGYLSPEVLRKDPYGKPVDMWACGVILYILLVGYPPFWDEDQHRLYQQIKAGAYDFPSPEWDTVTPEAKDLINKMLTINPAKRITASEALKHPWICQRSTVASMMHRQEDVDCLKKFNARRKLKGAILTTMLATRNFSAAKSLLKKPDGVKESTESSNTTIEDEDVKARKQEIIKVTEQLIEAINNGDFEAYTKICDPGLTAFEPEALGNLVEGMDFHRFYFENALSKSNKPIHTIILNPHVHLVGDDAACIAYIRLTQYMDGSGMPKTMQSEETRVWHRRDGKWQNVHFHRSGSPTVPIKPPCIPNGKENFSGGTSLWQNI

The target of assay [1] is recombinant human His‐CaMKIIδ‐T287D full‐length protein (human) (UniProt Q13557).
The target in assay [2] is recombinant His‐CaMKIIδ‐T287D (species not named for the experiment) (not stated (rat or human protein made)) (UniProt P15791). Kind of assay: ELISA; His‐CaMKIIδ‐T287D or CaMKIIδ fragment coated, 1 μg/well in PBS overnight at 4°C; blocked with gelatin or BSA; 5 μL of 1 mM biotinylated peptide, 2 h at 37°C; anti‐biotin‐HRP, read at 450 nm. For orientation: ELISA stands for enzyme-linked immunosorbent assay.

Turning to “biotinylated SN‐db‐short [SN (7–26, L17F, V20F)] (peptide)”, in assay [1], the CaMKIIδ‐mediated phosphorylation of Thr17 of biotin‐ahx‐PLN (1–30), immunoblot; reduction compared to SN was determined as 84% and the CaMKIIδ‐mediated phosphorylation of Thr17 of biotin‐ahx‐PLN (1–30), immunoblot; reduction compared to no peptide is 86%. Also, in assay [2], the fold binding capacity against SN (7–26) is 1.5 fold and the fold binding capacity against native SN was 8 fold.
